For assay [1], the target named is T1, AcAChBP (Aplysia californica, UniProt Q8WSF8, A155V/A60V). Put plainly: Isothermal titration calorimetry (ITC) of ligand binding to AcAChBP. (ITC needs no label: the signal is the heat of the interaction.)
The test system of assay [2] is neuronal α4β2 nAChRs. Conditions: radioligand competition binding assay, ref Ouyang et al., 2015; cited from earlier work. In general terms: Displacement assays read how much labelled ligand stays bound in the presence of the test substance.
Assay [3] has as its target T1, AcAChBP. Put plainly: Equilibrium tryptophan fluorescence-quenching assay.
Assay [4] deals with T1, AcAChBP. To be noted: cited from earlier work; for N (sites) / ΔG / ΔH / −TΔS: ITC.

By UniProt entry, the sequences of proteins in these tests, tags left out. Residues count along the entry.
UniProt Q8WSF8, 20-236 A155V/A60V limits assumed: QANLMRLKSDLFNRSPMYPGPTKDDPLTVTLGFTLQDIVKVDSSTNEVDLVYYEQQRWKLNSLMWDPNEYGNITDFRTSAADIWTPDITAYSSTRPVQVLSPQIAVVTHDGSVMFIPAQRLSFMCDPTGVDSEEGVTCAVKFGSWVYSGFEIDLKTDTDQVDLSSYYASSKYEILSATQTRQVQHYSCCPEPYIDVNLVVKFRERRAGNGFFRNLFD

Results on three molecules are retold here after paper PMC9435674, “Delineating the activity of the potent nicotinic acetylcholine receptor agonists (+)-anatoxin-a and (−)-hosieine-A” (2022).

Read-outs that look alike come from different tables or passages of the source.

For `C[C@@H]1CC2C3Cn4c(cccc4=O)C(CN2C)C31` (stereo partly shown), in assay [1] (25°C, n = 3, standard error), the “N (sites), molar ratio” value was 0.7 ± 0.03; the ΔG is -10.4 ± 0.2 kcal/mol; the ΔH is -8.9 ± -0.1 kcal/mol; the “−TΔS” value was -1.5 ± 0.3 kcal/mol. Further, in assay [1] (read-out: K d1 (dissociation constant from ITC), 25°C, n = 3, standard error), the Kd turned out to be 25 nM. Moreover, in assay [2], the inhibitory constant (Ki) – broadly, a measure of affinity in units of concentration, obtained from inhibition or displacement – is below 1 nM. In addition, in assay [3] (fluorescence titration fitted with specific binding with Hill slope), the Hill coefficient – broadly, the slope factor of the fitted curve – is 2.1 ). In addition, the Kd in assay [3] (read-out: K d2 (dissociation constant from fluorescence measurements), tryptophan fluorescence, emission 337 nm, room temperature, n = 3, standard error) stood at 40 nM.
`O=c1cccc2n1C[C@@H]1CNC[C@H]2C1`: in assay [4] (ref Davis et al. (2020)), the “N (sites)” value was 0.6 ± 0.01, the ΔG was -8.6 ± 0.3 kcal/mol, the ΔH was -15.2 ± 1.2 kcal/mol and the “−TΔS” value was 6.6 ± 1.4 kcal/mol. Moreover, in assay [4] (ref Rucktooa et al. (2012)), the “N (sites)” value is listed as 0.6, the ΔG was -7.9 kcal/mol, the ΔH was -13.3 kcal/mol and the “−TΔS” value is 5.4 kcal/mol. For the same molecule, in assay [4] (read-out: K d1 (dissociation constant from ITC), ref Davis et al. (2020)), the Kd is 600 nM. The Kd in assay [4] (read-out: K d1 (dissociation constant from ITC), ref Rucktooa et al. (2012)) is 1600 nM.
As to `CN1CCC[C@H]1c1cccnc1`, in assay [4] (ref Rucktooa et al. (2012)), the “N (sites)” value is 0.6, the ΔG was -8.3 kcal/mol, the ΔH is -12.5 kcal/mol and the “−TΔS” value was 4.2 kcal/mol. Further, in assay [1] (25°C, n = 3, standard error), the ΔG was -7.7 ± 0.1 kcal/mol, the ΔH was -17.8 ± 0.9 kcal/mol and the “−TΔS” value was determined as 10.0 ± 0.9 kcal/mol.
